Screens: PubChem BioAssay, Broad Institute
Hits are enriched below; roughly 1.3% of the tested compounds scored in any of these assays.
LGR2 antag: blocks bursicon-induced cAMP signaling via Drosophila LGR2; inhibition, % at 9.99 µM; HEK293 LGR2, CRE-luciferase, bursicon-stimulated, 4 h; 380,000 compounds, 0.35% hits;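 active means drop in luminescence signal, shown as inhibition above about 50% in the replicate tests, limit read from the data, passing the limit was not always enough; inconclusive means probably only some replicates passing the limit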;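 further: agonist challenge used bursicon conditioned medium at about half maximal strength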
miR-122 sensor: blocks miR-122 activity in Huh7 sensor cells. Huh7 miR-122 Renilla luciferase sensor, 48 h; neutral wells = 0, positive control = 100. activation (reporter increase), % at 12.5 µM. 340,000 compounds, 0.3% hits. AID 602342;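 active means mean replicate activation score at least 90 and every replicate individually at or above 90; inconclusive means only one of the two criteria met; inactive means neither criterion met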;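 further: higher luciferase means less miR-122 activity so hits act as miR-122 inhibitors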
PglD DTNB: PglD (C. jejuni) enzyme inhibition. purified PglD enzyme, DTNB colorimetric CoA detection. inhibition, % at 12.5 µM. 360,000 compounds, 0.098% hits. AID 602405; in the data active means inhibition above about 16%, passing the limit was not always enough; inconclusive means no clear call, values can overlap the other calls
Yeast UUG start-1: alters start codon recognition fidelity in yeast. S. cerevisiae UUG-firefly luciferase reporter, luminescence/redox ratio. activity score, % at 18.7 µM. 0.13% of 350,000 active. AID 602363;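 active = replicate mean at a twofold rise or more, about +100% in these data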;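 also: firefly luciferase made from a UUG start codon reports start codon fidelity; reporter light over untreated wells divided by growth signal over untreated wells; some hits fall short of that in this replicate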
EWS-Fli block: EWS/Fli transcriptional activity inhibition; A673 NR0B1-luciferase reporter, viability-normalised; 350,000 compounds, 0.67% hits; inhibition, % at 12.6 µM;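 active means mean inhibition of at least 50% after viability correction, with every replicate also passing that limit; inconclusive means mean reaches 50% but only one of two replicates passes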;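 further: firefly luciferase signal divided by Alamar Blue viability fluorescence both relative to DMSO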
CFTR F508del cor: correctors of CFTR F508del function in bronchial epithelial cells | CFBE cells, YFP halide quenching; stimulated with forskolin plus potentiator P3; % fluorescence drop versus neutral controls | 350,000 compounds, 0.36% hits | AID 720511 | activity (quench increase), % at 7.58 µM;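 active means mean added fluorescence quench of at least 8% versus neutral control, with both replicates also reaching 8%; inconclusive means only one of the mean or replicate conditions met; inactive means mean below 8% and not both replicates reaching 8%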;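 further: cells transiently co-express mutant CFTR-F508del with the halide-sensitive YFP; corrector assay measuring rescue of mutant channel to the surface after 24 h compound exposure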
Yeast UUG start-2: alters UUG start codon use in yeast | shares compounds with Yeast UUG start-1 | S. cerevisiae UUG-start firefly luciferase, luminescence, 4 h; 100% means double the DMSO signal | activation, % at 38 µM | 540 tested, under 10 active;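 active means signal increase whose fitted curve reaches an absolute level of 40 at a concentration under 10 µM; inactive means activity opposite to the expected increase, or the rest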
PglD inh SP: PglD (C. jejuni) inhibition confirmation; Purified C. jejuni PglD, DTNB absorbance 412 nm; inhibition, % at 20 µM; 320 tested, under 10 active; shares compounds with PglD DTNB;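 active means mean inhibition across replicates of at least 20% with every single replicate also at 20% or more; inconclusive means mean inhibition at least 20% but some replicate falls below 20%; inactive means mean inhibition under 20% and not all replicates reach it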;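 further: initial rate of CoA release by acetyl transfer from AcCoA to the UDP-4-amino sugar; 0% = median of neutral control wells and 100% = median of positive control wells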
DNA binder FP: binds DNA displacing acridine orange; shares compounds with EWS-Fli block; salmon sperm DNA acridine orange fluorescence polarization; AC35, µM (series often up to 68 µM), without a hit: top-dose activity change, negative = DNA binding; 640 compounds, 2% hits; AID 720586;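 active means fitted curve reaches a 35% signal fall AC35 below twice the sample's top valid tested dose, actives reach about 48 µM in these data; inactive means the rest, including activity in the rising direction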;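 further: lower polarization ratio signals compound binding to DNA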
An asterisk follows results filed as active; i = inactive; ? = inconclusive; . = no result given; [ ] = dose if it differs, or a comment.

SMILES | LGR2 antag | miR-122 sensor | PglD DTNB | Yeast UUG start-1 | EWS-Fli block | CFTR F508del cor | Yeast UUG start-2 | others
O=C1Nc2ccc([N+](=O)[O-])cc2OC1CCN1CCOCC1 (configuration not stated) | -15 | 3 | 2 | -11 | 10 | 3 | 6
O=C1Nc2ccc([N+](=O)[O-])cc2OC1CCN1CCN(c2ccccc2)CC1 (configuration not stated) | -2 | 4 | 1 | -25 | -3 | -1 | -6
CN1CCN(CCC2Oc3cc([N+](=O)[O-])ccc3NC2=O)CC1 (configuration not stated) | 22 | . | . | . | -1 | -2 | 16
O=[N+]([O-])c1ccc(N2CCN(c3ccccc3)CC2)cc1 | . | -3 | -7 | -15 | -13 | 2 | .
O=[N+]([O-])c1ccc(NCCCN2CCOCC2)c([N+](=O)[O-])c1 | -2 | . | . | . | 2 | 0 | .
O=C1Nc2ccc([N+](=O)[O-])cc2OC1CCN1CCCC1 (configuration not stated) | -10 | 1 | 2 | -15 | 8 | -2 | .
CCC(=O)N1C[C@@H](O)COC[C@H]2O[C@@H](CC(=O)NCC3CCCCC3)CC[C@@H]21 | 3 | 0[16.7 µM] | -1 | 112* | -2 | 1 | i
CCC(=O)N1C[C@@H](O)COC[C@@H]2O[C@@H](CC(=O)NCC3CCCCC3)CC[C@H]21 | 9 | -6[16.7 µM] | 6 | -5 | 0 | 1 | .
O=C(c1ccccc1F)N1C[C@@H]2[C@H](c3ccccc31)[C@@H](CO)N2C(=O)C1CCCC1 | -10 | -7[16.7 µM] | -2 | active | 0 | -2 | i
O=C(c1cccnc1)N1C[C@@H]2[C@H](c3ccccc31)[C@H](CO)N2C(=O)C1CCCC1 | -28 | 0[16.7 µM] | 10 | 103* | -5 | 1 | i
O=C(c1cccnc1)N1C[C@@H]2[C@H](c3ccccc31)[C@H](CO)N2C(=O)C1CCCCC1 | 11 | 27[16.7 µM] | -1 | -10 | 5 | 1 | .
O=C(Cc1ccccc1)N1C[C@@H]2[C@H](c3ccccc31)[C@H](CO)N2C(=O)c1ccc(F)cc1 | 1 | -17[16.7 µM] | 3 | 17 | -63 | -5 | .
O=C(Cc1ccccc1)N1C[C@H]2[C@@H](c3ccccc31)[C@@H](CO)N2C(=O)c1ccc(F)cc1 | -11 | 8[16.7 µM] | -1 | 109* | -4 | -1 | i
Cc1ccc(S(=O)(=O)c2cc3c(=O)n4ccccc4nc3n(C3CCCC3)c2=N)cc1 | -12 | . | -3 | -10 | 0 | 8 | .
COc1ccc2oc(C(=O)N(C)Cc3ccc4c(c3)OCCO4)c(C)c2c1 | -13 | . | -5 | 22 | -10 | -4 | .
COc1ccc2oc(C(=O)OCC(=O)c3ccc4c(c3)OCCO4)c(C)c2c1 | . | -2 | 2 | 668* | . | . | 16
CCCCn1c(N)c(N(CCOC)C(=O)C2CC(=O)N(c3ccc(CC)cc3)C2)c(=O)[nH]c1=O (configuration not stated) | 0 | . | 3 | 129* | 8 | -1 | -6
CC(C)N(CC#CC(O)(c1ccccc1)c1ccccc1)C(C)C | 2 | . | . | . | 10 | 0 | -6
C/C=C/c1cnc2c(c1)C(=O)N([C@H](C)CO)C[C@H](C)[C@H](CN(C)S(=O)(=O)c1ccc(F)cc1)O2 | 6 | 1[16.7 µM] | 0 | 130* | 8 | -2 | i
C[C@@H]1CN([C@@H](C)CO)C(=O)c2cc(C#CC3CCCCC3)cnc2O[C@H]1CN(C)S(=O)(=O)c1ccc(F)cc1 | 14 | -6[16.7 µM] | 3 | 119* | 11 | 3 | i

Part of the list above in order of formula weight, low to high:
SMILES | LGR2 antag | miR-122 sensor | PglD DTNB | Yeast UUG start-1 | EWS-Fli block | CFTR F508del cor | Yeast UUG start-2 | others
O=[N+]([O-])c1ccc(N2CCN(c3ccccc3)CC2)cc1 | . | -3 | -7 | -15 | -13 | 2 | .
O=C(Cc1ccccc1)N1C[C@H]2[C@@H](c3ccccc31)[C@@H](CO)N2C(=O)c1ccc(F)cc1 | -11 | 8[16.7 µM] | -1 | 109* | -4 | -1 | i
C/C=C/c1cnc2c(c1)C(=O)N([C@H](C)CO)C[C@H](C)[C@H](CN(C)S(=O)(=O)c1ccc(F)cc1)O2 | 6 | 1[16.7 µM] | 0 | 130* | 8 | -2 | i

Next part
SMILES | LGR2 antag | miR-122 sensor | PglD DTNB | Yeast UUG start-1 | EWS-Fli block | CFTR F508del cor | Yeast UUG start-2 | others
CCCC12CN3CC(C)(CN(C1)C3c1ccc([N+](=O)[O-])o1)C2=O (configuration not stated) | -4 | -2 | 1 | -19 | 12 | 0 | .
CCCCC12CN3CC(C)(CN(C1)C3c1ccc([N+](=O)[O-])o1)C2=O (configuration not stated) | . | -27 | 0 | 146* | 0 | 2 | 2
COc1cc(C2CC(=O)C=C(O)C2)cc(OC)c1OC (configuration not stated) | . | -3 | 0 | 516* | . | . | 0
COc1ccc(C(=O)N2CCCc3ccccc32)cc1OC | 3 | 2 | 1 | active | -12 | 3 | -7
Cc1ccc(NC(=O)/C(=C\c2cccc([N+](=O)[O-])c2)NC(=O)c2cccs2)cc1 | . | ? | 3 | 557* | . | . | 6
Cc1ccc(NC(=O)/C(=C/c2cccc([N+](=O)[O-])c2)NC(=O)C2CCCCC2)cc1 | -5 | . | -2 | -15 | 10 | -1 | .
Cc1occc1C(=O)Nc1ccccc1NC(=O)c1ccoc1C | . | 5 | 8 | 198* | . | . | -2
Cc1occc1C(=O)Nc1cccc2ccccc12 | . | -2 | -10 | -11 | . | . | .
COc1ccccc1NC(=O)c1ccc(NS(=O)(=O)c2c(C)noc2C)cc1 | . | 6 | -6 | 442* | . | . | -4
COc1ccc(NC(=O)c2ccc(NS(=O)(=O)c3c(C)noc3C)cc2)cc1OC | . | -1 | 8 | 1 | . | . | .
CN(C)CCCN1C(=O)[C@@]2(Cc3ccccc31)c1ccccc1C(=O)N(Cc1ccccc1Cl)[C@H]2c1ccc(CO)cc1 | . | . | -1 | 202* | -1 | -2 | i
COc1ccccc1CN1C(=O)c2ccccc2[C@@]2(Cc3ccccc3N(CCN3CCOCC3)C2=O)[C@@H]1c1ccc(CO)cc1 | . | . | -1 | 130* | 4 | 1 | i
CC(C)CN1C(=O)[C@@]2(Cc3ccccc31)c1ccccc1C(=O)N(Cc1ccccc1Cl)[C@H]2c1ccc(CO)cc1 | . | . | 1 | 22 | 4 | -2 | .
COC(CN(C)S(=O)(=O)c1cc2c3c(c1)CCN3C(=O)CC2)OC | -3 | 3 | 0 | -20 | 3 | 1 | .
COc1cc(NC(=O)Cc2nn(C)c(=O)c3ccccc23)cc(OC)c1 | 13 | -2 | 21* | -9 | . | . | 4 | PglD inh SP=-5
COc1ccccc1CNC(=O)C[C@H]1C[C@H]2c3cc(NC(=O)c4ccc5c(c4)OCO5)ccc3O[C@H]2[C@@H](CO)O1 | 9 | -4[16.7 µM] | 1 | . | -18 | 3 | .
C[C@H]1CN([C@@H](C)CO)S(=O)(=O)c2ccc(C#Cc3ccncc3)cc2O[C@@H]1CN(C)S(=O)(=O)c1ccccc1 | 11 | ? | 3 | 126* | 53* | -3 | i | DNA binder FP=-5%
CC(C)(C)OC(=O)N1CCc2onc(-c3ccc(-n4cc(C5=CCCCC5)nn4)cc3)c2C1=O | -47 | . | . | . | -133 | -3 | .

In the list so far, these have a Cl atom.
SMILES | LGR2 antag | miR-122 sensor | PglD DTNB | Yeast UUG start-1 | EWS-Fli block | CFTR F508del cor | Yeast UUG start-2 | others
CN(C)CCCN1C(=O)[C@@]2(Cc3ccccc31)c1ccccc1C(=O)N(Cc1ccccc1Cl)[C@H]2c1ccc(CO)cc1 | . | . | -1 | 202* | -1 | -2 | i
CC(C)CN1C(=O)[C@@]2(Cc3ccccc31)c1ccccc1C(=O)N(Cc1ccccc1Cl)[C@H]2c1ccc(CO)cc1 | . | . | 1 | 22 | 4 | -2 | .
